Reference: patent publication US20260306460A1, “COMPOSITION FOR REMOVING AND INHIBITING SENESCENT CELLS, AND USES THEREOF” (LIFECEUTIX CO., LTD., priority 2023, published 2026)

Columns and labels:
[1] = test system: HMGN1 secreted from senescent A549 cells; experiment: HMGN1 secretion (ELISA) from senescent A549 cells, Example 18, Table 14; type: cell-based, human; conditions: doxorubicin-senescent A549, without test compound (DMSO) = 100%; 30 μM (LX-5211, LX-5433, LX-6530, LX-6800, LX-9105, LX-9118, LX-9131, LX-9136, LX-9302, LX-9321, LX-9565, LX-9602 at 90 μM; LX-9336 at 2.4 mM)
[2] = test system: HMGN1 secreted from senescent cells; experiment: HMGN1 secretion (ELISA) from doxorubicin-induced senescent cells, Example 17; type: cell-based, human; conditions: senescent untreated = 100%; 30 μM; 90 μM for LX-5211, 5433, 6530, 9105, 9118, 9321, 9602; 2.4 mM for LX-9336

Molecule | HMGN1 [1] [%] | HMGN1 [2] [%]
Mirvetuximab [LX-7622] | 281 | –
Evolocumab (antibody, chains of the INN, looked up, V domains shown, CAS 1256937-27-5) VH: EVQLVQSGAEVKKPGASVKVSCKASGYTLTSYGISWVRQAPGQGLEWMGWVSFYNGNTNYAQKLQGRGTMTTDPSTSTAYMELRSLRSDDTAVYYCARGYGMDVWGQGTTVTVSS VL: ESALTQPASVSGSPGQSITISCTGTSSDVGGYNSVSWYQQHPGKAPKLMIYEVSNRPSGVSNRFSGSKSGNTASLTISGLQAEDEADYYCNSYTSTSMVFGGGTKLTVL | – | 281
